Experimental data taken from patent publication US7902348B2, “Janus family kinases and identification of immune modulators” (The United States of America as represented by the …, priority 1995, dated 2011).

B1: IL-3: lymphokine shown to activate JAK-2 (protein, UniProt P08700 20-152, looked up)
Interleukin-3: APMTQTTPLKTSWVNCSNMIDEIITHLKQPPLPLLDFNNLNGEDQDILMENNLRRPNLEAFNRAVKSLQNASAIESILKNLLPCLPLATAAPTRHPIHIKDGDWNEFRRKLTFYLKTLENAQAQQTTLSLAIF

Experiments:
Type in all cases: cell-based, human
JAK-3 [1] = assay: Cytokine-induced tyrosine phosphorylation of JAK-3 in YT cells (Example 10); conditions: 15 minutes stimulation, anti-JAK-3 IP, antiphosphotyrosine blot
Experimental: (§1) YT cells were serum-starved for 3 hours and acid washed twice before stimulation and immunoprecipitation. NK 3.3 cells were grown for 2 days in 10% lymphocult (Biotest) and 15% fetal bovine serum before being washed and incubated in 2% serum. Commercial polyclonal anti-JAK-1 and JAK-2 antisera were obtained from UBI and Tyk2 polyclonal antiserum from Santa Cruz Biotechnology.

JAK-3 [2] = assay: IL-2 stimulated JAK-3 in vitro kinase activity in immunoprecipitates (Example 9); conditions: YT cells, IL-2 1000 U/ml for 0, 10 or 20 minutes
Experimental: Cells were treated with IL-2 (1000 U/ml) for 0, 10 or 20 minutes. In vitro kinase activity was measured in anti-JAK-3 immunoprecipitates. For measurement of in vitro kinase activity, immunoprecipitates were washed in 50 mM NaCl, 5 mM MgCl2, 5 mM MnCl2, 0.1 mM Na3VO4, 10 mM HEPES (pH 7.4) and incubated in the same buffer containing 0.25 μCi/ml [^32P-γ] ATP for 15 minutes at room temperature. After three washes, proteins were eluted in sample buffer and analyzed by SDS-PAGE. Gels were either dried or transferred to IMMOBILON™ membrane before exposure. Autophosphorylation signals were detected by autoradiography of the dried gels. JAK-3 in vitro kinase activity in response to IL-2 stimulation (15 minutes) was measured in immunoprecipitates from peripheral blood NK cells and Hut78 cells. […] Similar results were obtained using human peripheral blood NK cells and Hut78 cells. This kinase activity was not precipitated by preimmune serum or in the presence of competing JAK-3 peptide.

JAK-3 [3] = assay: Cytokine-induced tyrosine phosphorylation of JAK-3 in NK 3.3 cells (Example 10); conditions: 5 or 15 minutes stimulation
Experimental: as §1
In related procedures, NK 3.3 cells that were incubated overnight in 2% serum were stimulated with IL-2 (1000 U/ml), IL-4 (100 U/ml) or IFN-γ (500 U/ml) for 5 or 15 minutes. Cellular lysates were immunoprecipitated with anti-JAK-3 and blotted with antiphosphotyrosine.

JAK-3 [4] = assay: Time course of IL-2 induced JAK-3 tyrosine phosphorylation in Hut78 cells (Example 7); conditions: Hut78 cells treated with IL-2 for 5, 10 or 30 minutes
Experimental: Cells were either unstimulated or stimulated with IL-2 (1000 U/ml) for 5 minutes, then lysed, immunoprecipitated with anti-JAK-3 antisera and immunoblotted and probed with a monoclonal antiphosphotyrosine antibody (4G10 UBI). In this procedure, cells were washed twice with RPMI that had been acidified at pH 6.5 before incubation for 3 hours with 0.5% human serum. The cells were again washed twice before stimulation with IL-2. The cells were lysed in buffer containing TRITON™ X-100 detergent prior to the immunoprecipitation procedure. Detection of the antiphosphotyrosine antibody probe bound to the 125 kDa JAK-3 protein band was by autoradiography.
Lysates from Hut78 cells either untreated or treated with IL-2 for 5, 10 or 30 minutes were immunoprecipitated with anti-JAK-3 and blotted with antiphosphotyrosine antibody and with anti-JAK-3. […] JAK-3 was also found to be phosphorylated in response to IL-2 in human peripheral blood T-cells that had been pre-activated with PHA for 24 hours. Thus in human T and NK cells, T-cell and NK cell lines, IL-2 induced the rapid tyrosyl phosphorylation of JAK-3 protein.

| Molecule | JAK-3 tyrosine phosphorylation (JAK-3 [1]) | time of peak JAK-3 kinase activity (JAK-3 [2]) | JAK-3 tyrosine phosphorylation (JAK-3 [3]) | time of maximal JAK-3 tyrosine phosphorylation (JAK-3 [4]) [min] |
| --- | --- | --- | --- | --- |
| IL-2: T-cell lymphokine, autocrine growth factor | tyrosine phosphorylated | approximately 10 minutes | tyrosine phosphorylated | 10 |
| B1 | not phosphorylated | – | – | – |
